Values quoted from earlier work in patent US20160355464A1, “FUMARATE COMPOUNDS, PHARMACEUTICAL COMPOSITIONS THEREOF, AND METHODS OF USE” (priority 2015, published 2016).

Conditions: ALS patients

## Nc1nc2ccc(OC(F)(F)F)cc2s1 [riluzole]
  extension of survival in ALS: about three
